Source: patent US12377102B2, “Compounds for the prevention and treatment of medical disorders and uses thereof” (GALECTIN SCIENCES, LLC, priority 2017, dated 2025)

Sequences of proteins named here, by UniProt entry; tags and fusion partners are left off. A change or cut given only in a name is not applied to a line headed by its entry.
UniProt P17931, whole entry: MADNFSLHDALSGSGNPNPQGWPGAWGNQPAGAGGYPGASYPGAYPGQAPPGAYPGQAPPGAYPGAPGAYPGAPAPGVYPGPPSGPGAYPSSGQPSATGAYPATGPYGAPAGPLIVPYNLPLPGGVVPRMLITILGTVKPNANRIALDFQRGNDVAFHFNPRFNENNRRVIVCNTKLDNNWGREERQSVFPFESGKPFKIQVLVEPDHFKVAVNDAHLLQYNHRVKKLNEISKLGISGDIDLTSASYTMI
UniProt O00214: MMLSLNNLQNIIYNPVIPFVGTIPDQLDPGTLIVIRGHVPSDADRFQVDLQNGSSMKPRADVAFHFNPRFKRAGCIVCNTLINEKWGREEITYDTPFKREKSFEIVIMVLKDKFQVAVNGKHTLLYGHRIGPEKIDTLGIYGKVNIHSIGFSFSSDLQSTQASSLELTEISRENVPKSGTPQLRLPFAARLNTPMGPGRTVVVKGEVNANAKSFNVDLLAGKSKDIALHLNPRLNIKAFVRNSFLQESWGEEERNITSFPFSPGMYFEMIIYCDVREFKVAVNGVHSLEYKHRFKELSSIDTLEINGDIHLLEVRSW

Assays:
recombinant human Gal-3 = target: T1, recombinant human Gal-3 (Homo sapiens, UniProt P17931); test: 1H-15N HSQC NMR shifts of 15N-labeled Gal-3 on compound addition; assay type: binding; details: C-terminal CRD S-face (Amino-acids 114-245)
T1 construct: shifts of whole molecule of Gal-3 (Gal-3 FL); made in house; host or cells: E. coli BL21 (DE3)
Description: Heteronuclear ^15N NMR spectroscopy was used to evaluate the interaction of compounds described herein with galectin molecules, including but not limited to Gal-3, to assess the interaction residues on the Gal-3 molecule.
NMR experiments were carried out at 30° C. on Bruker 600 MHz, 700 MHz or 850 MHz spectrometers equipped with H/C/N triple-resonance probes and x/y/z triple-axis pulse field gradient units. […] Raw data were converted and processed by using NMRPipe and were analyzed by using NMRview.

[1] = target: galectin 8 interaction with integrin αMβ2 (Homo sapiens, UniProt O00214); details: ELISA, FIG. 8E
Source text: Activated ELISA plate is coated with αMβ2 integrin. Gal-3 binding is monitored with anti-Gal-3 antibody conjugated with FITC. Positive signal of FITC represent no inhibition while reduced signal indicate inhibition.

Max 15N NMR shift (recombinant human Gal-3): 0.4 ppm | inhibition of galectin 8 interaction with integrin αMβ2 [1]: inhibited
Structure (SMILES): OC[C@H]1O[C@@H](S[C@@H]2O[C@H](CO)[C@H](O)[C@H](n3cc(-c4cccc(F)c4)nn3)[C@H]2O)[C@H](O)[C@@H](n2cc(-c3cccc(F)c3)nn2)[C@H]1O [TD-139]
